Values of other authors as cited in patent US20060217315A1, “Method of controlled ovarian hyperstimulation and pharmaceutical kit for use in such method” (priority 2001, published 2006).

Conditions: cited from earlier work

Substance	in vivo half-life (t1/2) [h]
LH isolated from urine: luteinising hormone isolated from female urine	0.167 to 0.333
recLH: LH obtained from a recombinant cell line	12 to 13
